Among the data in PubChem BioAssay AID556 (SRMLSC, 2006) are inhibition values, retold here.

The inhibition is the change of the read-out against control, counted positive when it falls.

Only a part is listed here, and it is no random draw. Calls of active or inactive are those of the source.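 Rule for the calls: active = the 320 compounds with the highest percent inhibition in the single-dose primary screen, excluding strongly autofluorescent ones (cut at about 32% in these data); inactive = the rest, inconclusive results apart.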

The assay relates to diphosphomevalonate decarboxylase (Streptococcus pneumoniae D39). Put plainly: S. pneumoniae DPM-DC inhibitors, primary screen, biochemical, PK/LDH-coupled NADH fluorescence (AID 556).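 Note: kinetic rate of NADH fluorescence loss reporting ADP formed by the decarboxylase; 0% = full reaction rate with carrier and 100% = no-substrate background rate.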 The conditions noted are these: purified DPM-DC, at 10 µM, stronger effect = higher value.
With `O=P(Nc1nccs1)(c1ccccc1)c1nc2ccccc2s1` (stereo unspecified), the inhibition is active: 81%.
